Data published in US20020010186A1, “Dihydropyrimidines and uses thereof” (Synaptic Pharmaceutical Corporation, priority 1996, published 2002).
Where two headings read alike, the source gives them in different places.

Protein sequences, listed by entry. Tags and fused reporters are not part of them.
UniProt P25100, whole entry: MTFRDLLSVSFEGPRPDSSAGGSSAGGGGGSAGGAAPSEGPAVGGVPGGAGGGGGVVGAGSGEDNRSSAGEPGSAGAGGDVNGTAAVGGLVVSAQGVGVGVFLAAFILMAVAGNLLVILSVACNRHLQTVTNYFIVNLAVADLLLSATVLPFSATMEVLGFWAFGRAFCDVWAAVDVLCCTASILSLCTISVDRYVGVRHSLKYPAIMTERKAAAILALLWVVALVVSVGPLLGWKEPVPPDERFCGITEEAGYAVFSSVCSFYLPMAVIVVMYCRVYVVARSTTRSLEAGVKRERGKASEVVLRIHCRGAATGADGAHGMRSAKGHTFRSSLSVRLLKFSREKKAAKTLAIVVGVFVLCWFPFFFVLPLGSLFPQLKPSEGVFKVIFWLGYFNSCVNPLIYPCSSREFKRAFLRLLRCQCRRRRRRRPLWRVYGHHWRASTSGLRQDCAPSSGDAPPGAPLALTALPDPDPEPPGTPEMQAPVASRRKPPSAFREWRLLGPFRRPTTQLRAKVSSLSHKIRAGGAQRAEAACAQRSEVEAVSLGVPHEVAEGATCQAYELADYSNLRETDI
UniProt P35368, whole entry: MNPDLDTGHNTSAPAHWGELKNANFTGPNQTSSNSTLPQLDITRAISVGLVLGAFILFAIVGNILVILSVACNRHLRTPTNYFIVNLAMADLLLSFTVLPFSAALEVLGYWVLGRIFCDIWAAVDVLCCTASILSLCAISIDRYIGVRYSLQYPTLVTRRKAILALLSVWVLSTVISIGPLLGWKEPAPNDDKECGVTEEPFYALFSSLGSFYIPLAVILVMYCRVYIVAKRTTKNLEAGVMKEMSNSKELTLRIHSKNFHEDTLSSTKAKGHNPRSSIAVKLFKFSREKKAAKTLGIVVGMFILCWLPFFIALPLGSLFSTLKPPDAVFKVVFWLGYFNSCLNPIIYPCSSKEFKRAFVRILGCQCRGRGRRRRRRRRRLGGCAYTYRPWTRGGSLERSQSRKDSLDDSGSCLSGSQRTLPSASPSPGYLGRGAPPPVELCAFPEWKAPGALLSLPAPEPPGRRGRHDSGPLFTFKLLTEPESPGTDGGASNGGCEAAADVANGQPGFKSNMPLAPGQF

What was measured:
human α1A receptor = target: T1, human α1A receptor (Homo sapiens, UniProt P35348); test: Radioligand binding assay ([3H]prazosin) at cloned human α1A adrenergic receptor
T1 sequence (P35348 1-466): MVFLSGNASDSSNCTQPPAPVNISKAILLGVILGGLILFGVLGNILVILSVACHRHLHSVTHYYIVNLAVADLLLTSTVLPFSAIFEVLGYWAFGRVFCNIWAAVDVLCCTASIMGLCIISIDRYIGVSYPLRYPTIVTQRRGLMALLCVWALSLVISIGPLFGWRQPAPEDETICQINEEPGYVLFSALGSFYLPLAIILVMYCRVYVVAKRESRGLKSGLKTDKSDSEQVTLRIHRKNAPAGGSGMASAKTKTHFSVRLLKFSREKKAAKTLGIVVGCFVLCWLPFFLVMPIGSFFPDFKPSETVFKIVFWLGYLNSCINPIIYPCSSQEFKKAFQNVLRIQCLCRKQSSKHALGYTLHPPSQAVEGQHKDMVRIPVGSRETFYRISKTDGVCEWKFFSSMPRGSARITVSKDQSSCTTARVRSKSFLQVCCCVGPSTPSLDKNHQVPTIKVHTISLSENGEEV
Procedure: (§1) These cell lines were prepared by transfecting the cloned cDNA or cloned genomic DNA or constructs containing both genomic DNA and cDNA encoding the human u-adrenergic receptors as follows:
(§2) The construct involved ligating three partial overlapping fragments: a 5′ 0.6 kb HincII genomic clone, a central 1.8 EcoRI hippocampal cDNA clone, and a 3′ 0.6Kb PstI genomic clone. The hippocampal cDNA fragment overlaps with the 5′ and 3′ genomic clones so that the HincII and PstI sites at the 5′ and 3′ ends of the cDNA clone, respectively, were utilized for ligation. This full-length clone was cloned into the KpnI site of the expression vector, using the 5′ and 3′ KpnI sites of the fragment, derived from vector (i.e., pBluescript) and 3′-untranslated sequences, respectively. Stable cell lines were selected as described above. […] Radioligand Binding Assays: Transfected cells from culture flasks were scraped into 5 ml of 5 mM Tris-HCl, 5 mM EDTA, pH 7.5, and lysed by sonication. The cell lysates were centrifuged at 1000 rpm for 5 min at 4° C., and the supernatant was centrifuged at 30,000×g for 20 min at 4° C. The pellet was suspended in 50 mM Tris-HCl, 1 mM MgCl2, and 0.1% ascorbic acid at pH 7.5. […] Nonspecific binding was determined in the presence of 10 μM phentolamine. […]

human α1D receptor = human α1D receptor (Homo sapiens, UniProt P25100); test: Radioligand binding assay ([3H]prazosin) at cloned human α1D adrenergic receptor; settings: membranes of LM(tk-) cells, [3H]prazosin 0.5 nM, read-out: hα1d pKi (converted)
Procedure: as §1
The cells were grown, in a controlled environment ([…]., 5% CO2), as monolayers in Dulbecco's modified Eagle's Medium (GIBCO, Grand Island, N.Y.) containing 25 mM glucose and supplemented with 10% bovine calf serum, 100 units/ml penicillin g, and 100 μg/ml streptomycin sulfate.
as §2, with “sonication.” for “sonication. The cell lysates were centrifuged at 1000 rpm for 5 min at 4° C., and the supernatant was centrifuged at 30,000×g for 20 min at 4° C. The pellet was suspended in 50 mM Tris-HCl, 1 mM MgCl2, and 0.1% ascorbic acid at pH 7.5.”

human α1B receptor = human α1B receptor (Homo sapiens, UniProt P35368); test: Radioligand binding assay ([3H]prazosin) at cloned human α1B adrenergic receptor; settings: membranes of LM(tk-) cells, [3H]prazosin 0.5 nM, read-out: hα1b pKi (converted)
Procedure: as §1
The construct involved ligating the full-length containing EcoRI brainstem cDNA fragment from λ ZapII into the expression vector. Stable cell lines were selected as described above.
as §2, with “C.” for “C. The pellet was suspended in 50 mM Tris-HCl, 1 mM MgCl2, and 0.1% ascorbic acid at pH 7.5.”

**Q.** For `CCC1=C(C(N)=O)C(c2ccc([N+](=O)[O-])cc2)N(C(=O)NCCCN2CCC(C(=O)OC)(c3ccccc3)CC2)C(=O)N1` (single isomer, unassigned; (+)) [Example 13, (+)-5-Carboxamido-4-ethyl-1-{N-[3-(4-methoxycarbonyl-4-phenylpiperidin-1-yl)propyl]}carboxamido-6-(4-nitrophenyl)-2-oxo-1,2,3,6-tetrhydropyrimidine], which Ki (human α1A receptor; cloned human α1a receptor, membranes of LM(tk-) cells, [3H]prazosin 0.5 nM, read-out: hα1a pKi (converted)) is on record?
**A.** 0.182 nM

**Q.** What about the Ki (human α1D receptor) of the same compound?
**A.** 724 nM

**Q.** What about the Ki (human α1B receptor) of the same compound?
**A.** 617 nM

**Q.** How did the Ki (human α1A receptor) turn out when `COC(=O)C1=C(C)N=C(C)N(CCCCCN2CCC(C(=O)OC)(c3ccccc3)CC2)C1c1ccc(F)c(F)c1` (stereo not shown) [Example 17, 6-(3,4-Difluorophenyl)-1,6-dihydro-5-methoxycarbonyl-1-(5-(4-methoxycarbonyl-4-phenylpiperidin-1-yl)-pentyl)-2,4-dimethylpyrimidine] was run?
**A.** 1.02 nM
